Usually IC50 stands for the midpoint of a concentration-inhibition curve. Low values mean greater potency in that assay, high ones weaker potency in that assay.

The chains behind the UniProt entries cited, without tags or fusion partners.
UniProt Q8NER1, whole entry: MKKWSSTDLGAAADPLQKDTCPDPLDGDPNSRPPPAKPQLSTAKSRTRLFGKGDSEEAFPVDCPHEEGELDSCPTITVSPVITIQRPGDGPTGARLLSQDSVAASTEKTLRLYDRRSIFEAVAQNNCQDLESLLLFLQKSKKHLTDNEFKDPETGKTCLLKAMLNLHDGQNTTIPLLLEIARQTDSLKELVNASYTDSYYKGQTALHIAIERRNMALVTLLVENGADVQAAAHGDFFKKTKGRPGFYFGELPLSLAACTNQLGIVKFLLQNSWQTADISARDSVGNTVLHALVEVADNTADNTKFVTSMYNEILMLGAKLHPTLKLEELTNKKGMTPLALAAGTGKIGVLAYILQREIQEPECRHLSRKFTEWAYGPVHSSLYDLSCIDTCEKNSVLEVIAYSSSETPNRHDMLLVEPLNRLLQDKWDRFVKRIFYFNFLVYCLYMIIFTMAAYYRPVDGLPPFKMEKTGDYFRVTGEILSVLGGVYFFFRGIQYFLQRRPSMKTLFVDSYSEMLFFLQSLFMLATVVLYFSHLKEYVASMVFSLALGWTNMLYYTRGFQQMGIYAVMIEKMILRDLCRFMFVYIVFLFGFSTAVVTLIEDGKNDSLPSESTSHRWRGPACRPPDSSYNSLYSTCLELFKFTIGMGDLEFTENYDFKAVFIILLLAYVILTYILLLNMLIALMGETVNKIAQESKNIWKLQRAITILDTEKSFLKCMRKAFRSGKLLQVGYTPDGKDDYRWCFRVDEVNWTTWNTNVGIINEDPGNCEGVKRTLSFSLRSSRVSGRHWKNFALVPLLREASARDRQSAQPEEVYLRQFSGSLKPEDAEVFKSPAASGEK

This test deals with human VR1 receptors (Homo sapiens, UniProt Q8NER1). The test is described as follows: Human VR1 antagonist assay (Ca2+ imaging). Particulars: cells expressing human VR1, fura-2 Ca2+ imaging, FDSS 6000; capsaicin (300 nM) or acid (pH5.8) stimulation, table does not say which. The text has this:
Human VR1 Antagonist Assay
VR1 antagonistic activity can be determined by the Ca^2+ imaging assay using human VR1 highly expressing cells. The cells that highly express human VR1 receptors are obtainable from several different conventional methods. The one standard method is cloning from human Dorsal Root Ganglion (DRG) or kidney according to the methods such as described in the journal article; Nature, 389, pp 816-824, 1997. Alternatively VR1 receptors highly expressing human keratinocytes are also known and published in the journal article (Biochemical and Biophysical Research Communications, 291, pp 124-129, 2002). […] Further more, the method to up regulate human VR1 gene, which is usually a silent gene or don't produce detectable level of VR1 receptors, is also available to obtain propriety cells. Such genetic modification method was described in detail; Nat. Biotechnol., 19, pp 440-445, 2001.
The cells that express human VR1 receptors were maintained in culture flask at 37° C. in an environment containing 5% CO2 until use in the assay. The intracellular Ca^2+ imaging assay to determine VR1 antagonistic activities were done by following procedures.
The culture medium was removed from the flask and fura-2/AM fluorescent calcium indicator was added to the flask at a concentration of 5 μM in the medium. The flask was placed in CO2 incubator and incubated for 1 hour. Then the cells expressing the human VR1 receptors were detached from the flask follow by washing with phosphate buffer saline, PBS(−) and re-suspended in assay buffer. […]
The capsaicin-induced changes in the intracellular calcium concentration were monitored using FDSS 6000 (Hamamatsu Photonics, Japan), a fluorometric imaging system. […]
The Acid-induced changes in the intracellular calcium concentration were monitored using FDSS 6000 (Hamamatsu Photonics, Japan), a fluorometric imaging system. […]
The monitoring of the changes in the fluorescence signals (λex=340 nm/380 nm, λem=510-520 nm) was initiated at 1 minute prior to the addition of capsaicin solution or acidic buffer and continued for 5 minute.
Consider `C[C@@H](NC(=O)[C@H]1C[C@@H]1c1ccc(C(C)(C)C)c(F)c1)c1ccc(NS(C)(=O)=O)c(F)c1`, for which the IC50 stood at 39.6 nM.
In the case of `Cc1cc([C@@H](C)NC(=O)C2CC2c2ccc(C(F)(F)F)cc2)ccc1NS(C)(=O)=O` (stereo partly drawn) [Example 19a, N-((1R)-1-{3-Methyl-4-[(methylsulfonyl)amino]phenyl}ethyl)-2-[4-(trifluoromethyl)phenyl]cyclopropanecarboxamide], the half-maximal inhibitory concentration (IC50) is 71 nM.
With `C[C@@H](NC(=O)[C@H]1C[C@]1(C)c1ccc(OC(F)(F)F)cc1)c1cc(F)c(NS(C)(=O)=O)c(F)c1` the figure was 42.2 nM.

The record behind these values is patent publication US7915448B2, “Substituted sulfonylaminoarylmethyl cyclopropanecarboxamide as VR1 receptor antagonists” (Pfizer Inc., priority 2005, dated 2011).
